B1: porcine Neuromedin U-8 (peptide, UniProt P34964 158-165, looked up)
peptide: YFLFRPRN
modifications: C-terminal amide (the filing says mammalian neuromedins share the C-terminal sequence -Phe-Leu-Phe-Arg-Pro-Arg-Asn-amide)
B2: porcine Neuromedin U25 (peptide, UniProt P34964 141-165, looked up)
peptide: FKVDEEFQGPIVSQNRRYFLFRPRN
modifications: C-terminal amide (the filing says mammalian neuromedins share the C-terminal sequence -Phe-Leu-Phe-Arg-Pro-Arg-Asn-amide)

Sequences of proteins named here, by UniProt entry; tags and fusion partners are left off. A line that says so, or that is headed by a name, gives the form on record, which may keep a tag or linker.
UniProt Q9GZQ4, other isoform, or with tags, fused parts or gaps: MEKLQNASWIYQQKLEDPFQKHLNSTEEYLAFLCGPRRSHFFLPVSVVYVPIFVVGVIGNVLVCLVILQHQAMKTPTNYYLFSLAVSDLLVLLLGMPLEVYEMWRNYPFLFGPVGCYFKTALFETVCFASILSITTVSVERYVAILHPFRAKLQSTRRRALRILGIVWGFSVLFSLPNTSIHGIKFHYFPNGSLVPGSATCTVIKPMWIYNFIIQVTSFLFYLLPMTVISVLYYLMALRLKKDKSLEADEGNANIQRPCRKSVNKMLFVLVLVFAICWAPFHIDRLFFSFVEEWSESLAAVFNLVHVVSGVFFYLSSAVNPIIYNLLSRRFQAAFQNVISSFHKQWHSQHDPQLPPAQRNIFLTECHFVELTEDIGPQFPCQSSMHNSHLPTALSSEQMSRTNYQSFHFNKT

Molecular target: IGS4A (IGS4APROT), human G-protein coupled receptor IGS4, polymorphic form A (human, UniProt Q9GZQ4 4-415)
Assay: cell-based or functional assay

Row | Binder | EC50, calcium mobilisation (FLIPR) [nM] | log EC50, calcium mobilisation (FLIPR) [log M]
1 | B1 | 0.485 | -9.3
2 | B2 | 658 | -6.18

Source: patent publication US20040175796A1 (SOLVAY PHARMACEUTICALS B V, published 2004)
